# Ab-91 heavy chain CDR variants: yeast mating affinities

Target peptide (SARS-CoV-2 spike, HR2 region): PDVDLGDISGINAS

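The starting antibody came from a phage panning campaign against this peptide. In library AAYL51, one, two or three CDR residues were substituted; doubles and triples were drawn at random. The scFvs were displayed on barcoded MATa yeast, the peptide on MATalpha yeast. The frequency of each diploid, read from paired DNA barcodes, reflects how well the two displayed proteins bind. Scores were corrected for input abundance and mapped to Kd with protein pairs of known affinity run in the same pool. The assay was run in three technical replicates.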

Parent scFv Ab-91: VL joined to VH by the linker GGGGSGGGGSGGGGS. Changes lie in the heavy chain CDRs alone.
VL: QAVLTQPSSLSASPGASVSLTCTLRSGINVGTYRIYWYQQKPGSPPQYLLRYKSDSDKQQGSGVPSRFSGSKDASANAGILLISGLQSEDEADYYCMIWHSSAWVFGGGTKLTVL
VH: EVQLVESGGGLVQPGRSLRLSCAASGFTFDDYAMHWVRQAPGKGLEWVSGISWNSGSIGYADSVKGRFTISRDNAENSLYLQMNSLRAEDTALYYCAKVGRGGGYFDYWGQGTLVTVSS

Substitutions are numbered in sequence along the VH above, starting at 1 (not Kabat). Each Kd is an estimate from the mating assay, the geometric mean of the replicates in which the pair was seen; lower is stronger. An entry "no signal" has no value in the source: the pair was not observed among the diploids in any replicate. This suggests poor binding but is not conclusive.

Variant G59K/F106P/Y108Q showed no signal (0 of 3 replicates; controls 0 of 9).
Variant K65Q/G103Y/Y105E showed no signal (0 of 3 replicates; controls 1 of 9).
Variant F29H/A61V/V99G showed no signal (0 of 3 replicates; controls 3 of 9).
Variant S55C/G102R/G103L showed no signal (0 of 3 replicates; controls 0 of 9).
Variant D30H/G59H/D107G showed 26 µM (1 of 3 replicates; controls 1 of 9).
Variant T28M/Y60C/Y108F showed 13 µM (3 of 3 replicates; controls 6 of 9).
Variant A33D/S55I showed 170 µM (3 of 3 replicates; controls 2 of 9).
Variant A33K/S63C/G103W showed 740 µM (1 of 3 replicates; controls 3 of 9).
Variant F27Q/S52N/G56M showed no signal (0 of 3 replicates; controls 0 of 9).
Variant T28K/A33W/S52C showed 52 µM (1 of 3 replicates; controls 2 of 9).
Variant S63T/K65N/Y108G showed 18 nM (3 of 3 replicates; controls 3 of 9).
Variant T28W/R101E/G102N showed 340 nM (3 of 3 replicates; controls 5 of 9).
Variant G26A/I51G/S57C showed 30 µM (2 of 3 replicates; controls 2 of 9).
Variant F27T/G50T/R101S showed 1.1 mM (1 of 3 replicates; controls 1 of 9).
Variant S63Y/V64M/Y108W showed 13 µM (3 of 3 replicates; controls 4 of 9).
Variant S63W/G102H showed 1.8 µM (1 of 3 replicates; controls 0 of 9).
Variant G102R/Y105F showed 41 µM (2 of 3 replicates; controls 6 of 9).
Variant G56E/I58G/G59F showed 140 µM (1 of 3 replicates; controls 3 of 9).
Variant M34Y/V64C/R101W showed 1.3 mM (1 of 3 replicates; controls 3 of 9).
Variant D31Y/M34K/S52M showed 70 µM (2 of 3 replicates; controls 1 of 9).
Variant I51S/Y105T showed 540 µM (1 of 3 replicates; controls 0 of 9).
Variant W53G/Y60R showed 130 µM (1 of 3 replicates; controls 2 of 9).
Variant S52K/N54G/Y108Q showed 15 µM (1 of 3 replicates; controls 3 of 9).
Variant D31M/W53H/N54R showed no signal (0 of 3 replicates; controls 1 of 9).
Variant S57P/V99H/G104Q showed 140 µM (2 of 3 replicates; controls 3 of 9).
Variant Y60K/V64C/Y105L showed no signal (0 of 3 replicates; controls 0 of 9).
Variant H35D/D62T/R101E showed 59 µM (1 of 3 replicates; controls 4 of 9).
Variant D30E/N54A/Y105E showed 3.2 µM (1 of 3 replicates; controls 1 of 9).
Variant F27C/G50P/N54P showed no signal (0 of 3 replicates; controls 0 of 9).
Variant G26F/W53Q/N54Y showed no signal (0 of 3 replicates; controls 3 of 9).

Extract of 5 entries:

changes	Kd (apparent)	replicates with signal	empty controls
G59K/F106P/Y108Q	no signal	0/3	0/9
K65Q/G103Y/Y105E	no signal	0/3	1/9
S63W/G102H	1.8 µM	1/3	0/9
H35D/D62T/R101E	59 µM	1/3	4/9
T28M/Y60C/Y108F	13 µM	3/3	6/9

Empty control strains, which show no peptide, gave a signal in 21% of pairings with library AAYL51; the median was 34 µM and 95% of these signals were weaker than 1.8 µM. No background was subtracted. For each scFv, signals with the empty controls are counted beside the result. For reference, the parent read 72 nM as the reference entry and 7.5 nM as a member of this library.

Values reported by Engelhart et al. 2022, doi:10.1038/s41597-022-01779-4 (FLAb copy).